This note sets out measurements from PubChem BioAssay AID504606 (National Center for Advancing Translational Sciences (NCATS), 2011).

In brackets after ≈: the same amount, converted by molar mass.

The test system of this data set is kinetic aqueous solubility, PBS pH 7.4, LC-UV/MS. In words: Inhibitors of HPGD: Aqueous Solubility Profiling. Conditions: hits give high values.

In general, solubility refers to the dissolved amount per volume that the medium holds. Regarding `N#Cc1ccccc1CSc1nc2ncc(Br)cc2[nH]1`, the solubility is 3 µM (≈ 1.04 µg/mL).
